Assay results reported in PubChem BioAssay AID1851 (National Center for Advancing Translational Sciences (NCATS), 2009).
Only a part is listed here, and it is no random draw. Records with an inconclusive call do not appear. More than one record can exist for a structure, and the calls need not agree. The source made the active and inactive calls. The call rests on the fitted dose curve; in most records, active means well fitted curve in the direction sought with a large enough effect; inconclusive means small, poorly fitted or top-dose-only effect, or effect the other way; inactive means no such curve, though single readings can be large or run the other way.

Chains of the proteins cited; added tags and fusions are not shown.
UniProt P11712, whole entry, looked up: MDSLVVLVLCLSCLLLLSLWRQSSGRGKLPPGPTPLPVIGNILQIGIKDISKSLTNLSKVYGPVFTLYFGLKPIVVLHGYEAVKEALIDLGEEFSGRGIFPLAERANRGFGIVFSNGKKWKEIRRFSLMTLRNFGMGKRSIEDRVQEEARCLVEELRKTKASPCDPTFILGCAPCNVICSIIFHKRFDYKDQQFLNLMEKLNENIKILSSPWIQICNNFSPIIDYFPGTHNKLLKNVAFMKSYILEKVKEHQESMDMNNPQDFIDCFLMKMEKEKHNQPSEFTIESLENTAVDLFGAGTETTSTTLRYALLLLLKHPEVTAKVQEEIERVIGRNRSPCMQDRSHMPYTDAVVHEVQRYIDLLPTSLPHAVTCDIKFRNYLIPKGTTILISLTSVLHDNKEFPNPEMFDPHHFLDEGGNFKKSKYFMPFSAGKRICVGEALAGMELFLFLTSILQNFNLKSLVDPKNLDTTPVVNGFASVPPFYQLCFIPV

These molecules were tested against Cytochrome P450 2C9 (Homo sapiens) (UniProt P11712) (assay: Cytochrome panel assay with activity outcomes). Details: recombinant CYP, pro-luciferin dealkylation, luminescence; p450-cyp2c9.

| Structure (SMILES) | AC50 |
| --- | --- |
| O=c1c(O)c(-c2ccc(O)c(O)c2)oc2cc(O)cc(O)c12 | active: 1000 nM |
